Measured values reported in PubChem BioAssay (NCI).
The entries are a selection whose mix differs from that of the whole data set.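 Single-concentration screen, 48 h exposure, 96-well plates. Endpoint: percent growth. Below 10 = active.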 Calls of active or inactive are those of the source.

Assays:
Assay in all cases: NCI-60 one-dose screen, 48 h (100 = growth as untreated, 0 = no growth, -100 = all killed)
[1] = system: DU-145 prostate; conditions: 10 µM unless noted
[2] = system: K-562 leukemia; conditions: 10 µM unless noted
[3] = system: MALME-3M melanoma; conditions: 10 µM unless noted
[4] = system: MDA-MB-231 breast; conditions: 10 µM unless noted
[5] = system: RXF 393 renal; conditions: 10 µM unless noted
[6] = system: SF-268 CNS; conditions: 10 µM unless noted
[7] = system: SF-295 CNS; conditions: 10 µM unless noted
[8] = system: SF-539 CNS; conditions: 10 µM unless noted
[9] = system: UACC-257 melanoma; conditions: 10 µM unless noted
[10] = system: M14 melanoma; conditions: 10 µM unless noted
[11] = system: HCT-15 colon; conditions: 10 µM unless noted
[12] = system: HT29 colon; conditions: 10 µM unless noted
[13] = system: SNB-75 CNS; conditions: 10 µM unless noted
[14] = system: SNB-19 CNS; conditions: 10 µM unless noted
[15] = system: U251 CNS; conditions: 10 µM unless noted
[16] = system: SK-MEL-5 melanoma; conditions: 10 µM unless noted
[17] = system: UACC-62 melanoma; conditions: 10 µM unless noted
[18] = system: SK-MEL-28 melanoma; conditions: 10 µM unless noted
[19] = system: PC-3 prostate; conditions: 10 µM unless noted
[20] = system: LOX IMVI melanoma; conditions: 10 µM

Measured: growth

CCOC(=O)NC(C)(CCC(C)(NC(=O)OCC)P(=O)(O)Nc1ncccn1)P(=O)(O)Nc1ncccn1 (stereo not drawn)
inactive: [1] 112% [100 µM] | [2] 99.5% [100 µM] | [3] 102% [100 µM] | [4] 99.7% [100 µM] | [5] 102% [100 µM] | [6] 102% [100 µM] | [7] 101% [100 µM] | [8] 100% [100 µM] | [9] 103% [100 µM] | [10] 100% [100 µM] | [11] 105% [100 µM] | [12] 114% [100 µM] | [13] 87.2% [100 µM] | [14] 96.6% [100 µM] | [15] 106% [100 µM] | [16] 101% [100 µM] | [17] 96.6% [100 µM] | [18] 106% [100 µM]

O=Cc1sc(N(CCCl)CCCl)nc1Cl
inactive: [1] 112% | [2] 100% | [3] 107% | [4] 113% | [5] 105% | [6] 93.9% | [7] 110% | [8] 104% | [9] 98.2% | [10] 92.2% | [11] 103% | [12] 98.9% | [13] 95.5% | [14] 99.7% | [15] 96.7% | [19] 92% | [16] 110% | [17] 92.2% | [20] 88.9% | [18] 106%

O=[As](O)(c1cccs1)c1cccs1
inactive: [1] 119% | [2] 113% | [3] 115% | [4] 116% | [5] 119% | [6] 112% | [7] 114% | [8] 101% | [9] 105% | [10] 97.7% | [11] 115% | [12] 102% | [13] 95.9% | [14] 97.6% | [15] 107% | [16] 106% | [17] 99.8% | [20] 106% | [18] 113%

ClP1(Cl)=NP(Cl)(Cl)=NP(c2ccccc2)(c2ccccc2)=N1
inactive: [1] 110% | [2] 92.6% | [3] 109% | [4] 116% | [5] 109% | [6] 108% | [7] 101% | [8] 102% | [9] 91.7% | [10] 91.5% | [11] 106% | [12] 84.4% | [13] 91.5% | [14] 114% | [15] 99% | [16] 101% | [17] 101% | [20] 100% | [18] 107%

C=NNc1ccc([N+](=O)[O-])cc1[N+](=O)[O-]
inactive: [1] 88.6% | [2] 64.7% | [3] 94.4% | [4] 81.3% | [5] 93.8% | [6] 82.4% | [7] 90.6% | [8] 98.9% | [9] 90.1% | [10] 92.5% | [11] 77.6% | [12] 95% | [13] 87.3% | [14] 94.6% | [15] 88.9% | [19] 77.2% | [16] 91.1% | [20] 70.7% | [18] 97.4%

S=P1(S)SC(Nc2ccccc2)CN1c1ccccc1 (stereo not drawn)
inactive: [1] 111% | [2] 93.4% | [3] 92.5% | [4] 98.3% | [5] 114% | [6] 96.3% | [7] 101% | [8] 101% | [9] 122% | [10] 102% | [11] 107% | [12] 112% | [13] 78.7% | [14] 99.1% | [19] 98.1% | [16] 102% | [17] 95.8% | [20] 94.8% | [18] 113%

CCN(CC)CCOC(=O)C(O)(c1cccc(OC)c1OC)c1cccc(OC)c1OC
inactive: [1] 107% | [2] 119% | [3] 105% | [4] 106% | [5] 112% | [6] 102% | [7] 98.9% | [8] 101% | [9] 92.6% | [10] 95.5% | [11] 98% | [12] 92.3% | [13] 105% | [14] 97.5% | [15] 92.6% | [19] 89.2% | [16] 90.8% | [17] 99.7% | [20] 99.6% | [18] 111%

CN(CCCl)CC1OC(O)C(O)C(O)C1O (stereo not drawn)
inactive: [1] 108% | [2] 102% | [3] 104% | [4] 102% | [5] 103% | [6] 104% | [7] 110% | [8] 94% | [9] 90.4% | [10] 99.1% | [11] 96.3% | [13] 96.4% | [14] 99% | [15] 94.1% | [19] 91.9% | [16] 108% | [17] 100% | [20] 102% | [18] 103%
